Biological target: p8 probe peptide, labeled with 6-carboxyfluorescein (6-carboxyfluorescein at the N-terminus)

Kd: 5 µM
B1: recombinant purified ABL SH3 domain alone (domain or fragment)
chain: NDPNLFVALYDFVASGDNTLSITKGEKLRVLGYNHNGEWCEAQTKNGQGWVPSNYITPVNS
